{
  "source": "paper PMC11396839",
  "about": "“Structure-Aided Computational Design of Triazole-Based Targeted Covalent Inhibitors of Cruzipain” (Molecules, 2024)",
  "tested_on": "T. cruzi",
  "test": "T. cruzi inhibition reported in literature",
  "type": "cell-based",
  "details": "IC50^Tc vs IC50^CZP",
  "data": [
    {"smiles": "CCCCC(C(=O)COc1c(F)c(F)cc(F)c1F)n1cc([C@@](C)(NCc2ccc3ncccc3c2)C(C)C)nn1", "note": "(stereo partly shown) [Ts-370]", "values": [
      {"measurement": "fold lower antitrypanosomal potency than CZP inhibitory potency", "result": 14, "unit": "fold"}
    ]}
  ]
}
